According to ChEMBL document CHEMBL1135195, “2-(2-Hydroxy-3-alkoxyphenyl)-1H-benzimidazole-5-carboxamidine derivatives as potent and selective urokinase-type plasminogen activator inhibitors” (Bioorg Med Chem Lett, 2002):

target: Urokinase-type plasminogen activator (Homo sapiens, UniProt P00749)

SMILES | Ki [nM]
CCOc1cccc(-c2cc3cc(C(=N)N)ccc3[nH]2)c1O | 450
N=C(N)c1cc2[nH]c(-c3cccc(OC4CCNC4)c3O)nc2cc1F (stereo not drawn) | 1200
N=C(N)c1cc2[nH]c(-c3cccc(OC[C@H]4CCCN4)c3O)nc2cc1F | 700
